The numbers were not newly measured in patent US7030155B2, “Emulsion vehicle for poorly soluble drugs” (Sonus Pharmaceuticals, Inc., priority 1998, dated 2006), which cites them from elsewhere.

Molecules are shown by their SMILES. Like-named read-outs stand apart in the source and are kept apart here. A value given as a limit tells only on which side of the number the result lay.

`CC(=O)O[C@H]1C(=O)[C@@]2(C)[C@H]([C@H](OC(=O)c3ccccc3)[C@]3(O)C[C@H](OC(=O)[C@H](O)[C@@H](NC(=O)c4ccccc4)c4ccccc4)C(C)=C1C3(C)C)[C@]1(OC(C)=O)CO[C@@H]1C[C@@H]2O` [paclitaxel]: the solubility of paclitaxel (30% PVP in water) was not above 300 µg/mL and the solubility of paclitaxel (35% PEG 400 in water) was 30 µg/mL.
